Laboratory results reported in ChEMBL document CHEMBL1914414, “Selective cholinesterase inhibition by lanostane triterpenes from fruiting bodies of Ganoderma lucidum” (Bioorg Med Chem Lett, 2011).

Protein sequences, listed by entry. Tags and fused reporters are not part of them. Lines headed by an entry give the natural chain unless they say otherwise; changes in a name come on top.
UniProt P22303: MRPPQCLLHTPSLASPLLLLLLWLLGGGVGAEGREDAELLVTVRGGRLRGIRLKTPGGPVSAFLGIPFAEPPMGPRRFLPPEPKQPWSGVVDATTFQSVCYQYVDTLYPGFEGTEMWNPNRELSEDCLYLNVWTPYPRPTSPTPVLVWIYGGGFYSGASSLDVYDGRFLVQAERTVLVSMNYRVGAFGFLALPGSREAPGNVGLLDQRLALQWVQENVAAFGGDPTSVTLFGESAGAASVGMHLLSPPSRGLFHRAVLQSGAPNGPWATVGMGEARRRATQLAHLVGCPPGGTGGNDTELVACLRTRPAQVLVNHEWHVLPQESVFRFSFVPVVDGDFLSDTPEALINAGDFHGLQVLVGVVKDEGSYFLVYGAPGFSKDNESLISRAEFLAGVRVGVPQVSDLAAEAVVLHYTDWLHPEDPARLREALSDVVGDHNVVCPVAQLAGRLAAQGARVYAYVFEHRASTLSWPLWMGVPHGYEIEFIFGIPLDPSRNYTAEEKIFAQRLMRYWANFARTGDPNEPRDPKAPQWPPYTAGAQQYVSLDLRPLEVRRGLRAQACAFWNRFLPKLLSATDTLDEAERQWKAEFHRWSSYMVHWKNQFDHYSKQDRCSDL

Target: Acetylcholinesterase (Homo sapiens, UniProt P22303)
Assay: Inhibition of AChE assessed as hydrolysis of acetylcholine preincubated for 15 mins measured after 15 mins by colorimetric Ellman assay

## COc1ccc2cc3[n+](cc2c1OC)CCc1cc2c(cc1-3)OCO2 [BERBERINE CHLORIDE]
  IC50: 40 nM
